We go through 6 compounds from ChEMBL document CHEMBL3826914, “Selective photodepletion of malignant T cells in extracorporeal photopheresis with selenorhodamine photosensitizers” (Bioorg Med Chem, 2016).

Each structure is given as a SMILES string.

The data set can be described thus: Efflux ratio of permeability from basolateral to apical over apical to basolateral side in dog MDCK2-MDR1 cells expressing ABCB1 at 5 uM after 30 mins by LC-MS/MS analysis. The settings on record: mdck-mdr1, 0.5 h.

On to `C[N+]1=c2cc3c(cc2C(C)(C)CC1)=C(c1ccc(C(=O)N2CCCCC2)s1)c1cc2c4c(c1[Se]3)CCCN4CCC2.[Cl-]`, for which the Ratio worked out at 48. For `CN1CCC(C)(C)c2cc3c(cc21)[Se]c1cc2c(cc1=C3c1ccc(C(=O)N3CCCCC3)s1)C(C)(C)CC[N+]=2C.[Cl-]` the value was 36; for `S=C(c1ccc(C2=c3cc4c5c(c3[Se]c3c2cc2c6c3CCCN6CCC2)CCC[N+]=5CCC4)s1)N1CCCCC1.[Cl-]`, 57. Regarding `CN1CCC(C)(C)c2cc3c(cc21)[Se]c1cc2c(cc1=C3c1ccc(C(=S)N3CCCCC3)s1)C(C)(C)CC[N+]=2C.[Cl-]`, the Ratio turned out to be 4. For `C[N+]1=c2cc3c(cc2C(C)(C)CC1)=C(c1ccc(C(=S)N2CCCCC2)s1)c1cc2c4c(c1[Se]3)CCCN4CCC2.[Cl-]` the value was 20; for `O=C(c1ccc(C2=c3cc4c5c(c3[Se]c3c2cc2c6c3CCCN6CCC2)CCC[N+]=5CCC4)s1)N1CCCCC1.[Cl-]`, 37.
